# Assay results as given in PubChem BioAssay AID588579 (National Center for Advancing Translational Sciences (NCATS), 2011).
# The chains behind the UniProt entries cited, without tags or fusion partners.
# UniProt Q9UBT6, whole entry: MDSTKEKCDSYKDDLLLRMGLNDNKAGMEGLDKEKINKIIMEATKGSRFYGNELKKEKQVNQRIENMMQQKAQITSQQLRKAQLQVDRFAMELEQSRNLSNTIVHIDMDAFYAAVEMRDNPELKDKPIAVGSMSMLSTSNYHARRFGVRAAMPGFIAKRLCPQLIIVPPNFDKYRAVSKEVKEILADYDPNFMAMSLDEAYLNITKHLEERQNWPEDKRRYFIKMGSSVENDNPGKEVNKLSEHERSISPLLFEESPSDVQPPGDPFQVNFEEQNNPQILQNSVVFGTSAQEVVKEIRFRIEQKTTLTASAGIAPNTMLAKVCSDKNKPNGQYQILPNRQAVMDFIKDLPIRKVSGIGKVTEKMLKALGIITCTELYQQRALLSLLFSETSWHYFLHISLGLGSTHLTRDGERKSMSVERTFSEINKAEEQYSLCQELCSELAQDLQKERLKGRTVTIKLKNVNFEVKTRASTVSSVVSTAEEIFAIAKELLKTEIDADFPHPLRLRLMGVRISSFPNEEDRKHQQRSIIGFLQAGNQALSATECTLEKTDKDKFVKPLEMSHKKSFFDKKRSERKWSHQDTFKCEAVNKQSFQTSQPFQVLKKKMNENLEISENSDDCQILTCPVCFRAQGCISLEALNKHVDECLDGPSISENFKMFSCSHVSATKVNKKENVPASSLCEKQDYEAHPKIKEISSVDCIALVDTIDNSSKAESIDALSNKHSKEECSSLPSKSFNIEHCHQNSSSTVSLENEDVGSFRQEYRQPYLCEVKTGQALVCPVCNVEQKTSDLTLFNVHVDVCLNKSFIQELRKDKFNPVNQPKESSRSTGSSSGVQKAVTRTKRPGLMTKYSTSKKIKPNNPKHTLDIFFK
# The entries are a selection whose mix differs from that of the whole data set. Inconclusive results are not listed. The source made the active and inactive calls. The call rests on the fitted dose curve; in most records, active means well fitted inhibition curve with a large enough effect; inconclusive means small, poorly fitted or top-dose-only effect, or another doubt; inactive means no such curve, though single readings can be large or run the other way.
# Biological target: DNA polymerase kappa (Homo sapiens) (UniProt Q9UBT6)
# Assay: qHTS for Inhibitors of Polymerase Kappa
# Details: purified Pol kappa, fluorescent DNA synthesis assay, 10 min; at 107 µM (top of the series) unless noted
# Protocol: The processing and repair of DNA interstrand crosslinks (ICL) in eukaryotic cells are extremely complex, potentially involving multiple DNA repair and damage tolerance pathways, including homologous recombination, nucleotide excision repair, translesion synthesis (TLS), and cell cycle checkpoints.
# To that end, in a collaboration between the Oregon Health & Science University and the NIH Chemical Genomics Center a 1536-well high-throughput screen was developed. This fluorescent screen was assayed against the NIH Molecular Libraries Small Molecule Repository (MLSMR) to discover inhibitors of Pol Kappa.
# NIH Chemical Genomics Center [NCGC]
# NIH Molecular Libraries Probe Centers Network [MLPCN]
# Assay Submitter (PI): Stephen Lloyd, Oregon Health & Science University
# Three microliters of reagents (buffer in column 3 and 4 as negative control and 10 nM Pol kappa in columns 1, 2, and 5-48) were dispensed into a 1536-well black solid-bottom plate. Compounds (23 nL) were transferred via Kalypsys pin tool equipped with 1536-pin array. The plates were then incubated for 15 min at room temperature, and 1 uL substrate (50 nM final concentration) were then added to start the reaction and kinetically read twice at 0 min and 10 min on the Viewlux reader
# On the % scale 0 is the no-effect control and ±100 the full control effect.
row,Structure (SMILES),"activity, negative = inhibition"
1,CCN(CC)CCCOC(=O)C(O)(c1ccccc1)c1ccccc1,inactive: -11.7%
2,O=[N+]([O-])c1ccc(-c2cc([N+](=O)[O-])c(O)c([N+](=O)[O-])c2)cc1,inactive: -12.9%
3,CN(C)C(=O)c1cc([N+](=O)[O-])cc2c1-c1c(cc([N+](=O)[O-])cc1[N+](=O)[O-])C2=O,inactive: -3.54%
4,CS(=O)(=O)c1cc([N+](=O)[O-])c2no[n+]([O-])c2c1,inactive: -29%
5,Cc1ccc(NCCc2c([N+](=O)[O-])cc([N+](=O)[O-])cc2[N+](=O)[O-])cc1,inactive: -11.5%
6,CN1CCCCC1COC(=O)C1(O)c2ccccc2CCc2ccccc21 (configuration not stated),inactive: -10.7%
7,O=[N+]([O-])c1ncn(CCn2cnc([N+](=O)[O-])n2)n1,inactive: 6.99%
8,O=[N+]([O-])c1ccc(OP2(=O)COCCO2)cc1 (configuration not stated),inactive: 4.46%
9,C(Cc1nn[nH]n1)Cc1nn[nH]n1,inactive: -8.85%
10,CN(C)CCOC(=O)C(O)(c1ccccc1)C1CCCCC1 (configuration not stated),inactive: -12.4%
11,CCN(CCCl)Cc1ccccc1C,inactive: -12.5% [at 60.1 µM]
12,c1nnnn1CCn1cnnn1,inactive: -12.5%
13,O=C(OCCN1CCN(CCOCc2ccccc2)CC1)C(O)(c1ccccc1)c1ccccc1,inactive: -6.51%
14,CCN(CC)CCCOC(=O)C(O)(c1ccccc1)C1CCCCC1 (configuration not stated),inactive: -2.68%
15,O=c1c2cc([N+](=O)[O-])ccc2[nH]c2c([N+](=O)[O-])cc([N+](=O)[O-])cc12,inactive: -17.5%
16,CCNC(=S)/N=C(\N)N[N+](=O)[O-],inactive: 5.36%
17,O=[N+]([O-])c1cc([N+](=O)[O-])c2nc[nH]c2c1,inactive: -13.3%
18,Nc1c(O)cc([N+](=O)[O-])cc1[N+](=O)[O-],inactive: -29.8%
19,CCN(N=Nc1nonc1N)c1nonc1N,inactive: -19.3%
20,Nc1cc(N)c2nonc2c1[N+](=O)[O-],inactive: -11.6%
21,CN(C)CCOC(=O)C(O)(c1ccccc1)C1CCCC1 (configuration not stated),inactive: 2.84%
22,CC(C)=N/N=C(\N)N[N+](=O)[O-],inactive: -2.42%
23,CCN(CC)CC(O)COC(=O)C(O)(c1ccccc1)C1CCCCC1 (configuration not stated),inactive: -22.1%
24,O=C(OCCCN1CCCC1)C(O)(c1ccccc1)C1CCCCC1 (configuration not stated),inactive: -0.7%
25,O=[N+]([O-])c1cc([N+](=O)[O-])c(CCNc2ccccc2)c([N+](=O)[O-])c1,inactive: -28.2%
26,CCc1nc2c(n1)c1c(non1O)c1c2no[n+]1[O-],inactive: -34.5%
27,O=[N+]([O-])c1ncn(CCn2ncnc2[N+](=O)[O-])n1,inactive: -10.1%
